Measured values reported in ChEMBL document CHEMBL4184302, “Virtual target screening reveals rosmarinic acid and salvianolic acid A inhibiting metallo- and serine-β-lactamases” (Bioorg Med Chem Lett, 2018).

Test: Inhibition of bacterial N-terminal His6-tagged VIM2 (27 to 266 residues) expressed in Escherichia coli BL21 DE3 pLysS cells using FC-5 as substrate in presence of 1000 uM zinc by fluorescence assay
Parameters: species or system Bacteria

Structure (SMILES): O=C(/C=C/c1ccc(O)c(O)c1)O[C@H](Cc1ccc(O)c(O)c1)C(=O)O [ROSMARINIC ACID]
- IC50: 45.9 µM
